Only a part of the results on these compounds is given; other tests are left out.
How the values were obtained:
[1] = system: HSP90 pools in JNPL3 (AD transgenic) mouse brain lysate; test: Fluorescence polarization (FP) competitive binding, cy3B-GM; details: read-out: FP relative affinity; displacement of cy3B-GM, 24 h, 4 °C; mean±SD, n=3
[2] = PAMPA-BBB permeability; details: porcine polar brain lipid, pH 7.4, 16 h; mean±SD, n=3

Row | Compound | EC50 [1] [nM] | PAMPA-BBB [2]
1 | CC(C)(C)CNCCn1c(Cc2cc3c(cc2I)OCO3)nc2c(N)nc(F)nc21 | 7.8 | 13.1±0.3 10-6 cms-1
2 | CC(C)(C)NCCn1c(Cc2cc3c(cc2I)OCO3)nc2c(N)nc(F)nc21 | 198 | 13.5±1.5 10-6 cms-1
3 | CC(C)CNCCn1c(Cc2cc3c(cc2I)OCO3)nc2c(N)nc(F)nc21 | 7.2 | 12.3±1.5 10-6 cms-1
4 | CC(C)NCCn1c(Cc2cc3c(cc2I)OCO3)nc2c(N)nc(F)nc21 | 219 | 5.2±2.6 10-6 cms-1

Reference: article PMC8333062, “Chemical tools for epichaperome-mediated interactome dysfunctions of the central nervous system” (Nature Communications, 2021)
